Source: PubChem BioAssay AID1259389 (Center for Chemical Genomics, University of Michigan, 2018)
Only a part is listed here, and it is no random draw. The source made the active and inactive calls. Rule for the calls: active = z-score of 3 or more in at least 2 runs; inactive = the rest.

Assay: TAR RNA-Tat peptide displacers, HIV-1, primary screen, biochemical, FRET, FAM/TAMRA-labeled Tat (AID 1259389); note: test concentration not given here
Details: HIV-1 TAR RNA, Tat peptide displacement FRET; stronger effect = higher value

Row | SMILES | z-score
1 | CN(CCCl)CCCl | inactive: 4.77
